Measured values: US11185076B2 (priority 2017, dated 2021)

Assays:
[1] = tested on: soft rot bacteria (Erwinia carotovora subsp. carotovora); test: Control test on Chinese cabbage soft rot (spray test); settings: inoculated 3 days after spraying
[2] = tested on: cucumber leaf spot bacteria (Pseudomonas syringae pv. lachrymans); test: Control test on cucumber leaf spot bacterial diseases (spray test); settings: inoculated 3 days after treatment
[3] = tested on: cucumber powdery mildew (Sphaerotheca cucurbitae); test: Control test on cucumber powdery mildew (spray test), Test Example 6; format: in vivo; settings: inoculated on the same day
[4] = tested on: soft rot bacteria (Erwinia carotovora subsp. carotovora); test: Control test on Chinese cabbage soft rot (soil drench test); settings: 10 days before inoculation
[5] = tested on: cucumber leaf spot bacteria (Pseudomonas syringae pv. lachrymans); test: Control test on cucumber leaf spot bacterial diseases (soil drench test); settings: 10 days before inoculation
[6] = tested on: cucumber powdery mildew (Pseudoperonospora cubensis); test: Control test on cucumber powdery mildew (spray test), Test Example 7; format: in vivo; settings: 250 ppm, inoculated on the same day
[7] = tested on: cabbage black rot (Xanthomonas campestris pv. campestris); test: Control test on cabbage black rot (soil drench test); settings: 10 days before inoculation

| SMILES | Result (control effect) ([1]; 50 ppm) | Result (control effect) ([2]; 250 ppm) | Result (control effect) ([3]; 250 ppm) | Result (control effect) ([4]; 22.5 g ai/10a) | Result (control effect) ([4]; 45 g ai/10a) | Result (control effect) ([2]; 50 ppm) | Result (control effect) ([5]; 180 g ai/10a) | Result (control effect) [6] | Result (control effect) ([3]; 50 ppm) | Result (control effect) ([7]; 22.5 g ai/10a) | Result (control effect) ([7]; 45 g ai/10a) | Result (control effect) ([1]; 250 ppm) | Result (control effect) ([5]; 250 g ai/10a) | Result (control effect) ([4]; 250 g ai/10a) | Result (control effect) ([7]; 250 g ai/10a) |
| --- | --- | --- | --- | --- | --- | --- | --- | --- | --- | --- | --- | --- | --- | --- | --- |
| CCC1(C(=O)N[C@H](C)c2ccc(Cl)cc2)C(C)C1(Cl)Cl (stereo partly drawn) [Carpropamide (e), carpropamid] | C (a control value less than 20 was evaluated as C (low control effect or no control effect)) | A (a control value of 50 or more was evaluated as A (high control effect is observed)) | B (a control value of 20 or more was evaluated as B (control effect is observed)) | C (a control value less than 20 was evaluated as C (low control effect or no control effect)) | B (a control value of 20 or more was evaluated as B (control effect is observed)) |  |  |  |  |  |  |  |  |  |  |
| O=C1CCc2cccc3c2N1CC3 [Pyroquilon (b), pyroquilon] | B (a control value of 20 or more was evaluated as B (control effect is observed)) | A (a control value of 50 or more was evaluated as A (high control effect is observed)) |  | B (a control value of 20 or more was evaluated as B (control effect is observed)) | A (a control value of 50 or more was evaluated as A (high control effect was observed)) | A (a control value of 50 or more was evaluated as A (high control effect is observed)) | A (a control value of 50 or more was evaluated as A (high control effect was observed)) | B (a control value of 20 or more was evaluated as B (control effect is observed)) | B (a control value of 20 or more was evaluated as B (control effect is observed)) | B (a control value of 20 or more was evaluated as B (control effect was observed)) | B (a control value of 20 or more was evaluated as B (control effect was observed)) |  |  |  |  |
| Cc1cccc2sc3nncn3c12 [Tricyclazole (c), tricyclazole] | A (a control value of 50 or more was evaluated as A (high control effect is observed)) | A (a control value of 50 or more was evaluated as A (high control effect is observed)) |  | C (a control value less than 20 was evaluated as C (low control effect or no control effect)) | B (a control value of 20 or more was evaluated as B (control effect is observed)) | A (a control value of 50 or more was evaluated as A (high control effect is observed)) | A (a control value of 50 or more was evaluated as A (high control effect was observed)) | B (a control value of 20 or more was evaluated as B (control effect is observed)) | A (a control value of 50 or more was evaluated as A (high control effect was observed)) | B (a control value of 20 or more was evaluated as B (control effect was observed)) | A (a control value of 50 or more was evaluated as A (high control effect was observed)) |  |  |  |  |
| O=C1OCc2c(Cl)c(Cl)c(Cl)c(Cl)c21 [Fthalide (d), fthalide] | B (a control value of 20 or more was evaluated as B (control effect is observed)) | A (a control value of 50 or more was evaluated as A (high control effect is observed)) |  |  |  | A (a control value of 50 or more was evaluated as A (high control effect is observed)) |  | B (a control value of 20 or more was evaluated as B (control effect is observed)) | B (a control value of 20 or more was evaluated as B (control effect is observed)) |  |  |  |  |  |  |
| C=CCOC1=NS(=O)(=O)c2ccccc21 [Probenazole (h), probenazole] |  | A (a control value of 50 or more was evaluated as A (high control effect is observed)) | A (a control value of 50 or more was evaluated as A (high control effect was observed)) |  |  |  |  | B (a control value of 20 or more was evaluated as B (control effect is observed)) |  |  |  | C (a control value less than 20 was evaluated as C (low control effect or no control effect)) | A (a control value of 50 or more was evaluated as A (high control effect was observed)) | B (a control value of 20 or more was evaluated as B (control effect is observed)) | C (A control value of less than 20 was evaluated as C (low control effect or no control effect)) |
| Cc1ccc(C(=O)NC[C@@H](NC(=O)OCC(F)(F)F)C(C)C)cc1 [Tolprocarb (a), tolprocarb] | B (a control value of 20 or more was evaluated as B (control effect is observed)) | A (a control value of 50 or more was evaluated as A (high control effect is observed)) |  | B (a control value of 20 or more was evaluated as B (control effect is observed)) | B (a control value of 20 or more was evaluated as B (control effect is observed)) | A (a control value of 50 or more was evaluated as A (high control effect is observed)) | B (a control value of 20 or more was evaluated as B (control effect was observed)) | B (a control value of 20 or more was evaluated as B (control effect is observed)) | B (a control value of 20 or more was evaluated as B (control effect is observed)) | B (a control value of 20 or more was evaluated as B (control effect was observed)) | B (a control value of 20 or more was evaluated as B (control effect was observed)) |  |  |  |  |
| CC(Oc1ccc(Cl)cc1Cl)C(=O)NC(C)(C#N)C(C)C (stereo not drawn) [Fenoxanil (g), fenoxanil] | C (a control value less than 20 was evaluated as C (low control effect or no control effect)) | A (a control value of 50 or more was evaluated as A (high control effect is observed)) | A (a control value of 50 or more was evaluated as A (high control effect was observed)) | A (a control value of 50 or more was evaluated as A (high control effect was observed)) | B (a control value of 20 or more was evaluated as B (control effect is observed)) |  |  |  |  |  |  |  |  |  |  |
| C[C@@H](NC(=O)C(C#N)C(C)(C)C)c1ccc(Cl)cc1Cl (stereo partly drawn) [Diclosimette (f), diclocymet] | C (a control value less than 20 was evaluated as C (low control effect or no control effect)) | A (a control value of 50 or more was evaluated as A (high control effect is observed)) | B (a control value of 20 or more was evaluated as B (control effect is observed)) | B (a control value of 20 or more was evaluated as B (control effect is observed)) | B (a control value of 20 or more was evaluated as B (control effect is observed)) |  |  |  |  |  |  |  |  |  |  |
